One experiment has as its target T1, human GnRH receptor (Homo sapiens, UniProt P30968).
T1 construct: expressed in transfected cells; host or cells: COS-1 cells, transient transfection (DEAE-Dextran), vector pcDNA I/AMP
T1 sequence (P30968 1-328): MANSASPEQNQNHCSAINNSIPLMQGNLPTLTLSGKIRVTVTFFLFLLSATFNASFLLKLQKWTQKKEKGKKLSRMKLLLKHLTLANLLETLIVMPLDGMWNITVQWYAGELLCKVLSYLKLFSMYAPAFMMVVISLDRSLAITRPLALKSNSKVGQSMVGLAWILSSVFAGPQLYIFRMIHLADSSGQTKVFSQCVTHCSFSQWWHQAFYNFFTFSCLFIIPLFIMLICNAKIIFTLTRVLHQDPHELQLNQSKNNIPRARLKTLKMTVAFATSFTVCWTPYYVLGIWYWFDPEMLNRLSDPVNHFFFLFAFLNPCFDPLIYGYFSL
As to the kind of experiment: GnRH analog-stimulated inositol phosphate (IP) accumulation in COS-1 cells transiently transfected with human GnRH receptor. The note with it: absence of antibody; read-out: EC50 of ligand-stimulated IP accumulation. It counts as cell-based. On the procedure: COS-1 cells were cultured in Dulbecco's modified Eagle's medium/DMEM (Life Technologies, Inc., Paisley, Scotland), supplemented with 10% foetal calf serum (FCS, Delta bioproducts, Kempton Park, South Africa) in a 10% CO2 incubator at 37° C. Cells were harvested with 0.05% trypsin. For all transient transfections 2×10^5 cells/well were seeded into 12-well plates and cultured overnight in DMEM containing 10% FCS and antibiotics (2 mg/ml streptomycin sulphate, 4000 U/ml sodium benzyl penicillin). COS-1 cells were transiently transfected using the DEAE-Dextran method, as previously described.
The transfected COS-1 cells (2×10^5 cells/well) were incubated overnight in 0.5 ml Medium 199 (Life Technologies Inc.) with antibiotics and myo-[2-^3H] inositol (1 μCi/well, Amersham Pharmacia Biotech) as previously described. […] Aspirating the medium and addition of 10 mM formic acid (1 ml/well) terminated the incubation. Inositol phosphates separated from the formic acid extract on DOWEX-1 ion exchange columns and eluted into scintillation liquid (Quicksafe, Zinsser Analytical, Frankfurt, Germany) and the radioactivity was counted.
IP assays were performed in duplicate and four-parameter nonlinear curve fitting (PRISM, GraphPad Software, In., San Diego, Calif.) was used to estimate the peptide concentrations required to stimulate half-maximal IP production (EC50). […]

Experiment [1] deals with purified rabbit anti-RI-GnRH antibodies. The experiment in a line: Inhibition immunoassay (ELISA): peptide displacement of anti-RI-GnRH antibodies from fixed RI-GnRH. The experiment is classed as binding. To be noted: increasing peptide concentrations. On the procedure: Microtitre plates were coated with RI-GnRH peptide (5 μg/ml) in 100 mM Na2CO3 (pH=9.6) and incubated for one hour at 37° C. After several washes with PBS (pH=7.4) plates were saturated for one hour with 1% BSA in PBS supplemented with Tween 20 (0.1% wt/volume) at 37° C. Sera from immunised rabbits and mice at different dilutions (1:500 to 1:3200) were added to the plates and incubated for one hour at 37° C. […] Washed plates were reacted with 3,3′,5,5′-tetramethyl benzidine (TMB) and […] as substrate.
Nonspecific inhibition was determined with an unrelated L peptide, […](V9C), and an unrelated RI peptide ([…]. Various dilutions of anti-RI-GnRH antibodies were preincubated with increasing concentrations of peptide (3.9-1000 nM) for 1 h at 37° C. The percent inhibition of signal was calculated from the amount of anti-RI-GnRH antibodies that bound RI-GnRH in the presence of increasing peptide concentrations against the amount of anti-RI-GnRH antibodies that bound RI-GnRH in the absence of competing peptide.
Background: ELISA stands for enzyme-linked immunosorbent assay.

The term pEC50 denotes the EC50 on a negative log10 scale, so that one unit is a factor of ten.

pEC50: −log10 of the molar value.

As to `CC(C)C[C@H](NC(=O)CNC(=O)[C@H](Cc1ccc(O)cc1)NC(=O)[C@H](CO)NC(=O)[C@H](Cc1c[nH]c2ccccc12)NC(=O)[C@H](Cc1c[nH]cn1)NC(=O)[C@@H]1CCC(=O)N1)C(=O)N[C@@H](CCC(N)=O)C(=O)N1CCC[C@H]1C(=O)NCC(N)=O` [[Gln^8]GnRH, reference compound], the negative logarithm of the EC50 (pEC50) on human GnRH receptor was 9.00. In addition, the “inhibition by free peptide of anti-RI-GnRH antibody binding to fixed RI-GnRH” value in experiment [1] is listed as “cross-react less”.

(Values after patent US7803381B2, “Retro-inverso gonadotropin-releasing hormone peptide and vaccine composition” (Shimoda Biotech (Pty) Ltd., priority 2002, dated 2010).)
